For orientation: IC50 means the concentration that gives 50% inhibition. A low value points to inhibition by little substance.

Amino acid sequences for entries named in this document (tags omitted).
UniProt O35433, whole entry: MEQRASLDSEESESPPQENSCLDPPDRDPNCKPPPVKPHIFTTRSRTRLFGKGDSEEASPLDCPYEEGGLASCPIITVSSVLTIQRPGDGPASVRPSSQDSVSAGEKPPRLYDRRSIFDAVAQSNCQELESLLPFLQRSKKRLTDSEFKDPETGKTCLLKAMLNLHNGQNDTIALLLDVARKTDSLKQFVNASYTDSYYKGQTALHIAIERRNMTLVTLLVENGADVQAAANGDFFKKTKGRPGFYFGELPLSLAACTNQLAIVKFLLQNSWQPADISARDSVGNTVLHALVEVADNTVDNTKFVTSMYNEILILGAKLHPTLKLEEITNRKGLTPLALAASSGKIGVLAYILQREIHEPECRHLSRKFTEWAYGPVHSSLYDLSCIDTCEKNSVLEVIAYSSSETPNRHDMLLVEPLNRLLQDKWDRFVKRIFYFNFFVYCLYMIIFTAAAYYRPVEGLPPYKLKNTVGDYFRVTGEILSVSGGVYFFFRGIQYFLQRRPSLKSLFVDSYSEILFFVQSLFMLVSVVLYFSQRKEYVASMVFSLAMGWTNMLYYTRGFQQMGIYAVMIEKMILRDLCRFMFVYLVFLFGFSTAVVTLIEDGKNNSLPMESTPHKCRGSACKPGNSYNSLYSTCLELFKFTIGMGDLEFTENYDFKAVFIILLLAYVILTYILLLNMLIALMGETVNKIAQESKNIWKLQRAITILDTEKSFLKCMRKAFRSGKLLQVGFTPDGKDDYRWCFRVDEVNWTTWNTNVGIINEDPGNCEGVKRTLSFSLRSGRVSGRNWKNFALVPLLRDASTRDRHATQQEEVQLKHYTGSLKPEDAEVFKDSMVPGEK

Structures are written as SMILES.

The source of these data is ChEMBL document CHEMBL1136303, “4-(2-pyridyl)piperazine-1-carboxamides: potent vanilloid receptor 1 antagonists” (Bioorg Med Chem Lett, 2003).

The target in experiment [1] is T1, Transient receptor potential cation channel subfamily V member 1 (Rattus norvegicus, UniProt O35433). In words: Vanilloid receptor subtype 1 antagonist activity based on its ability to block low pH-induced activation of the rat VR1 channel in a HEK293 cell line. The class given is functional.
Experiment [2] has as its target T1, Transient receptor potential cation channel subfamily V member 1. In words: Vanilloid receptor subtype 1 antagonist activity based on its ability to block capsaicin-induced (CAP) activation of the rat VR1 channel in a HEK293 cell line. The class given is functional.

In the case of `CC(C)c1ccc(NC(=O)N2CCN(c3ncccc3C(F)(F)F)CC2)cc1`, half-maximal inhibition in experiment [1] (IC50) was put at 39.2 nM.

In the case of `CC(C)(C)c1ccc(NC(=O)N2CCN(c3ncccc3Cl)CC2)cc1`, the IC50 in experiment [1] was 4.8 nM; in experiment [2], 34.9 nM.
